Data on three molecules can be found in ChEMBL document CHEMBL5505978, “Novel estrogen receptor β/histone deacetylase dual-targeted near-infrared fluorescent probes as theranostic agents for imaging and treatment of prostate cancer” (Eur J Med Chem, 2024).

Chains of the proteins cited; added tags and fusions are not shown.
UniProt Q92731, whole entry: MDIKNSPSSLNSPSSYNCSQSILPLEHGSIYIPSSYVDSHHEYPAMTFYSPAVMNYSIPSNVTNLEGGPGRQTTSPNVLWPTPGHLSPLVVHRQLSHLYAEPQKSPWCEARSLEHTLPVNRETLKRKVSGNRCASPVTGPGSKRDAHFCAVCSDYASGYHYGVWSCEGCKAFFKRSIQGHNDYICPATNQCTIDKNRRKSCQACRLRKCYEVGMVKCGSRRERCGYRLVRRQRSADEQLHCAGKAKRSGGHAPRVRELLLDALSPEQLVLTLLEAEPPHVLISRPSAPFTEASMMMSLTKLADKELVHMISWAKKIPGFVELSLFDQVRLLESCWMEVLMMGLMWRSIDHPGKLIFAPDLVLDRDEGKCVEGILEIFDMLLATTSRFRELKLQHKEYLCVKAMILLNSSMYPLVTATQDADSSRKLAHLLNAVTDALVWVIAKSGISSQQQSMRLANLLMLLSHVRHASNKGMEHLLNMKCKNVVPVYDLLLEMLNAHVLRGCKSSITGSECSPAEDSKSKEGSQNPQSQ

A short description of assay [1]: Selectivity ratio of relative binding affinity for ERbeta (unknown origin) to relative binding affinity to ERalpha (unknown origin).
Assay [2] addresses Estrogen receptor beta (Homo sapiens) (UniProt Q92731). The assay is described as follows: Binding affinity to ERbeta (unknown origin) assessed as relative binding affinity incubated for 2 hrs under dark condition by fluorescence polarization assay relative to control. Background: In fluorescence polarisation assays a small probe gives low polarisation when free and higher when bound to something large.

As to `N#CC(C#N)=C1C=C(/C=C/c2ccc(O)c(NC(=O)CCCCCCC(=O)NO)c2)Oc2ccccc21`, in assay [1], the Selectivity ratio was 45.
For the molecule `N#CC(C#N)=C1C=C(/C=C/c2ccc(O)c(NC(=O)CCCCCCC(=O)NO)c2)Oc2ccc(O)cc21`, in assay [1], the Selectivity ratio turned out to be 34. Further, in assay [2], the RBA worked out at 0.444%.
In the case of `N#CC(C#N)=C1C=C(/C=C/c2ccc(O)cc2)Oc2ccc(O)cc21`, the Selectivity ratio in assay [1] came out at 1.17. The RBA in assay [2] is 1.61%.
